One experiment addresses ovine COX-1 (Ovis aries (Sheep), UniProt P05979). Kind of experiment: colorimetric COX (ovine) inhibitor screening assay kit. The following applies: for IC50: read-out: COX-1 IC50, ovine COX-1; for COX-1 [% inhibition at 50 μM]: ovine COX-1, 50 μM.
A further experiment addresses ovine COX-2 (Ovis aries (Sheep), UniProt P79208). The description is as above. The following applies: for COX-2 [% inhibition at 50 μM]: ovine COX-2, 50 μM.

Amino acid sequences for entries named in this document (tags omitted). Residues count along the entry.
UniProt P05979, 25-600 limits assumed: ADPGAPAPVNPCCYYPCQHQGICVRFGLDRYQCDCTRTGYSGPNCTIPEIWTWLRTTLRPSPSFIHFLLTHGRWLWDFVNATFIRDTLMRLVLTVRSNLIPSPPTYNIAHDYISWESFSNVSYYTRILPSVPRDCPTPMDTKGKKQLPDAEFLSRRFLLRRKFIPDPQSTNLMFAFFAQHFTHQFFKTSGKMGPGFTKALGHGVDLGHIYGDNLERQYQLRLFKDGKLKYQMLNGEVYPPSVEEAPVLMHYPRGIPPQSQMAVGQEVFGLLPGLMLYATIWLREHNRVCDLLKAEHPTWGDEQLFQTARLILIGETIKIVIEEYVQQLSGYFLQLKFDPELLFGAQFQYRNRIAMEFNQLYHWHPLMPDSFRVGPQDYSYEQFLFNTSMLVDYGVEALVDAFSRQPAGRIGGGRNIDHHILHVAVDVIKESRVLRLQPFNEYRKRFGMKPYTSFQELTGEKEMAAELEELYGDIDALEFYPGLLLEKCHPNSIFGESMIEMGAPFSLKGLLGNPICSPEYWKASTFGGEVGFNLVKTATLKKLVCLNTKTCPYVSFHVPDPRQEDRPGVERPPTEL
UniProt P79208, 17-603 limits assumed: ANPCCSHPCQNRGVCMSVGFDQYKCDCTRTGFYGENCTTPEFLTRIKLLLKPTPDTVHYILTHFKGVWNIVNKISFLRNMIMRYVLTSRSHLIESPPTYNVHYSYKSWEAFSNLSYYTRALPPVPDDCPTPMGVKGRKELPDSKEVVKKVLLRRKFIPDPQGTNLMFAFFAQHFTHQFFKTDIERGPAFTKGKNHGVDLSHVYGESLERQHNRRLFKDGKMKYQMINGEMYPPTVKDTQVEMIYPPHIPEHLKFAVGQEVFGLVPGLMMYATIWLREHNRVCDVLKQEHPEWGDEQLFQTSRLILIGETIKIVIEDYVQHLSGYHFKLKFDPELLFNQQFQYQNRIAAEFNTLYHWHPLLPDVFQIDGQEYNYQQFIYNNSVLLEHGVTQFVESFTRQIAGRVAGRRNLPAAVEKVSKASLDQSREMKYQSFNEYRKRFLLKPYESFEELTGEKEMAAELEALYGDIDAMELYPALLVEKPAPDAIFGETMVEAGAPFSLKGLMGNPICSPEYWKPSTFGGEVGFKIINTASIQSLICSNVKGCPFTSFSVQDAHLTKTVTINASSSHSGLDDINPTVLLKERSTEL

Where only a bound is given, the exact number is not on record here.

For orientation: IC50 means the concentration at which inhibition is half-maximal.

With `COc1ccc(-c2noc(CC(=O)NCCCCCCCCCCCCNC(=O)Cc3onc(-c4ccc(OC)cc4)c3-c3ccc(OC)cc3)c2-c2ccc(OC)cc2)cc1`, the IC50 on ovine COX-1 is 7.1 µM; on ovine COX-2 (read-out: COX-2 IC50, ovine COX-2), more than 50 µM. On to `COc1ccc(-c2noc(CC(=O)NCCCCC(=O)O)c2-c2ccc(OC)cc2)cc1`, for which, at ovine COX-1, the “COX-1 [% inhibition at 50 μM]” value was “[74] %”. Also, the “COX-2 [% inhibition at 50 μM]” value on ovine COX-2 was “[22] %”. On to `COc1ccc(-c2noc(CC(=O)NCCCCNC(=O)CN)c2-c2ccc(OC)cc2)cc1`, for which the “COX-1 [% inhibition at 50 μM]” value at ovine COX-1 (tested form: HCl) was “[43] %”. Also, the “COX-2 [% inhibition at 50 μM]” value at ovine COX-2 (tested form: HCl) is “[49] %”. As to `CCN=c1cc2oc3cc(NCC)c(C)cc3c(-c3ccccc3C(=O)NCCCCNC(=O)Cc3onc(-c4ccc(Cl)o4)c3-c3ccccc3)c-2cc1C`, at ovine COX-1 (tested form: chloride), the “COX-1 [% inhibition at 50 μM]” value is “[69] %”. Besides, on ovine COX-2 (tested form: chloride), the “COX-2 [% inhibition at 50 μM]” value is “−[0] %”. On to `COc1ccc(-c2noc(CC(=O)NCCCCCCCCCCC(=O)OC[C@H]3OC(O)[C@H](O)[C@@H](O)[C@H]3O)c2-c2ccc(OC)cc2)cc1` (some centres unmarked), for which the “COX-1 [% inhibition at 50 μM]” value on ovine COX-1 is “[90] %”.

On to `COC(=O)CCCCNC(=O)Cc1onc(-c2ccc(OC)cc2)c1-c1ccc(OC)cc1`, for which the “COX-1 [% inhibition at 50 μM]” value at ovine COX-1 is “[91] %”. The “COX-2 [% inhibition at 50 μM]” value at ovine COX-2 was “[65] %”. In the same order, the values of `COc1ccc(-c2noc(CC(=O)NCCCCC(=O)NCC(=O)O)c2-c2ccc(OC)cc2)cc1` are “[23] %” and “[8] %”.

In the case of `COc1ccc(-c2noc(CC(=O)NCCCCN)c2-c2ccc(OC)cc2)cc1`, the “COX-1 [% inhibition at 50 μM]” value at ovine COX-1 (tested form: HCl) is “[94] %”. Turning to `COC(=O)CNC(=O)CCCCNC(=O)Cc1onc(-c2ccc(OC)cc2)c1-c1ccc(OC)cc1`, the “COX-1 [% inhibition at 50 μM]” value on ovine COX-1 is “[76] %”. In addition, the “COX-2 [% inhibition at 50 μM]” value at ovine COX-2 was “[49] %”. For the molecule `COc1ccc(-c2noc(CC(=O)Nc3ccc(-c4ccc(NC(=O)CCCCCNc5ccc([N+](=O)[O-])c6nonc56)cc4)cc3)c2-c2ccc(OC)cc2)cc1`, at ovine COX-1, the “COX-1 [% inhibition at 50 μM]” value was “[54] %” and the IC50 stood at 39 µM. Further, the “COX-2 IC50 (μM)” value at ovine COX-2 (ovine COX-2) is reported as “not active”. On to `CCCCC/C=C\C/C=C\C/C=C\C/C=C\CCCC(=O)Nc1ccc(-c2ccc(NC(=O)Cc3onc(-c4ccc(OC)cc4)c3-c3ccc(OC)cc3)cc2)cc1`, for which, on ovine COX-2, the “COX-2 [% inhibition at 50 μM]” value was “[60] %”.

Values taken from US12011433B2, priority 2016, dated 2024).
